Assay results reported in paper doi:10.1101/2025.04.08.647777 (bioRxiv, 2025).

B1: GST-CSN2 (natural protein)
chain: MSDMEDDFMCDDEEDYDLEYSEDSNSEPNVDLENQYYNSKALKEDDPKAALSSFQKVLELEGEKGEWGFKALKQMIKINFKLTNFPEMMNRYKQLLTYIRSAVTRNYSEKSINSILDYISTSKQMDLLQEFYETTLEALKDAKNDRLWFKTNTKLGKLYLEREEYGKLQKILRQLHQSCQTDDGEDDLKKGTQLLEIYALEIQMYTAQKNNKKLKALYEQSLHIKSAIPHPLIMGVIRECGGKMHLREGEFEKAHTDFFEAFKNYDESGSPRRTTCLKYLVLANMLMKSGINPFDSQEAKPYKNDPEILAMTNLVSAYQNNDITEFEKILKTNHSNIMDDPFIREHIEELLRNIRTQVLIKLIKPYTRIHIPFISKELNIDVADVESLLVQCILDNTIHGRIDQVNQLLELDHQKRGGARYTALDKWTNQLNSLNQAVVSKLA
B2: GST-CSN8 (natural protein)
chain: MPVAVMAESAFSFKKLLDQCENQELEAPGGIATPPVYGQLLALYLLHNDMNNARYLWKRIPPAIKSANSELGGIWSVGQRIWQRDFPGIYTTINAHQWSETVQPIMEALRDATRRRAFALVSQAYTSIIADDFAAFVGLPVEEAVKGILEQGWQADSTTRMVLPRKPVAGALDVSFNKFIPLSEPAPVPPIPNEQQLARLTDYVAFLEN
B3: GST-CSN3 (natural protein)
chain: MASALEQFVNSVRQLSAQGQMTQLCELINKSGELLAKNLSHLDTVLGALDVQEHSLGVLAVLFVKFSMPSVPDFETLFSQVQLFISTCNGEHIRYATDTFAGLCHQLTNALVERKQPLRGIGILKQAIDKMQMNTNQLTSIHADLCQLCLLAKCFKPALPYLDVDMMDICKENGAYDAKHFLCYYYYGGMIYTGLKNFERALYFYEQAITTPAMAVSHIMLESYKKYILVSLILLGKVQQLPKYTSQIVGRFIKPLSNAYHELAQVYSTNNPSELRNLVNKHSETFTRDNNMGLVKQCLSSLYKKNIQRLTKTFLTLSLQDMASRVQLSGPQEAEKYVLHMIEDGEIFASINQKDGMVSFHDNPEKYNNPAMLHNIDQEMLKCIELDERLKAMDQEITVNPQFVQKSMGSQEDDSGNKPSSYS

The binders below were run against MBP-DIC1 (UniProt O14576) (assay: pull-down).

**Q.** Does B1 bind?
**A.** binds

**Q.** Does B2 bind?
**A.** binds

**Q.** Does B3 bind?
**A.** binds
